The record followed here is patent publication US9890152B2 (Genentech, Inc., priority 2012, dated 2018).

Protein sequences, listed by entry. Tags and fused reporters are not part of them. Residues count along the entry.
UniProt P00533, 25-1210 T790M/L858R limits assumed: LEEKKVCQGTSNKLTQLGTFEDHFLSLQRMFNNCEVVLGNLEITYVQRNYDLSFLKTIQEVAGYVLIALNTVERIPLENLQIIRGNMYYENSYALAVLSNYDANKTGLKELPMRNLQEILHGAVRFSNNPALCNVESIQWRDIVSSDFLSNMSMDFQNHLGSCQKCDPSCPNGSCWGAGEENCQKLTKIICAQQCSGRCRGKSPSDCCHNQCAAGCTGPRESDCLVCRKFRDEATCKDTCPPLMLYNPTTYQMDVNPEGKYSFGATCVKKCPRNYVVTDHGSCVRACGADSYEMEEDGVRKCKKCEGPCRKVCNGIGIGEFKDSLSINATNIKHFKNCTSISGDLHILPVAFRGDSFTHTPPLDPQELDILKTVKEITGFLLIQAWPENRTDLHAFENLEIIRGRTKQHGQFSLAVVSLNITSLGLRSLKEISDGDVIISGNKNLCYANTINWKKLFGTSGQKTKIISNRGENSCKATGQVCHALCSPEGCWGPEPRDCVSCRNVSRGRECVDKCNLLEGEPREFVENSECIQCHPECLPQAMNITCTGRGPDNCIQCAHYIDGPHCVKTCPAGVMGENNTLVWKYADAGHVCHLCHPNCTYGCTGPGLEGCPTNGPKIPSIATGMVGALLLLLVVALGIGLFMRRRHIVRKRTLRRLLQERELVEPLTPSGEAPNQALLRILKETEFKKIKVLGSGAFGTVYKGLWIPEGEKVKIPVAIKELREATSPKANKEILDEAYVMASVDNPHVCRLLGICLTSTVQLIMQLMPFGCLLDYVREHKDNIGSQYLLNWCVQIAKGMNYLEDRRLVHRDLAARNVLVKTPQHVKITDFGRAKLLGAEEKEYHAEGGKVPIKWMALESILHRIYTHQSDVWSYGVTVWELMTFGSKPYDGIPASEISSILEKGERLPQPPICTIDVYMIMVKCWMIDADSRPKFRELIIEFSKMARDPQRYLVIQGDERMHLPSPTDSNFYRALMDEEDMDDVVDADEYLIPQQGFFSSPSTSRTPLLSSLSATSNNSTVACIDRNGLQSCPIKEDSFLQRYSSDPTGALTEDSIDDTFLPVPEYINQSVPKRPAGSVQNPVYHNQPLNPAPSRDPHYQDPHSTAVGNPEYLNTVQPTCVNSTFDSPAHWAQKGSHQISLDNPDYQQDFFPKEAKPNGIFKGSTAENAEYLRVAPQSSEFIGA

The structures appear in SMILES notation. Counter-ions that a name gives are not always drawn.

For the experiment, the target named is EGFR T790M L858R (Homo sapiens, UniProt P00533, L858R/T790M). Kind of experiment: biochemical. To be noted: EGFR(T790M/L858R) Ki (μM), 5 μM ATP, 30 min, room temperature; apparent Ki (Morrison) converted by Cheng-Prusoff, Km of ATP 1.3 μM.

For the molecule `Cc1nc2cnc(Nc3ccnc(-n4cnc(C(C)O)c4)n3)cc2n1C(C)C` (single isomer, unassigned) [Example 642, 1-(1-(4-((1-isopropyl-2-methyl-1H-imidazo[4,5-c]pyridin-6-yl)amino)pyrimidin-2-yl)-1H-imidazol-4-yl)ethanol], the Ki came out at 0.11 µM. `Cc1nc2cnc(Nc3ccnc(-n4cnc(C(C)O)c4)n3)cc2n1C(C)C` (single isomer, unassigned) [Example 643, 1-(1-(4-((1-isopropyl-2-methyl-1H-imidazo[4,5-c]pyridin-6-yl)amino)pyrimidin-2-yl)-1H-imidazol-4-yl)ethanol]: the Ki is 0.098 µM. For the molecule `CCC(C)n1cc(C(=O)NC2CCOCC2)c2cnc(Nc3ccnc(-c4cnn(S(=O)(=O)C5CC5)c4)n3)cc21` (single isomer, unassigned; (+)) [Example 321, (+)-1-(sec-Butyl)-6-((2-(1-(cyclopropylsulfonyl)-1H-pyrazol-4-yl)pyrimidin-4-yl)amino)-N-(tetrahydro-2H-pyran-4-yl)-1H-pyrrolo[3,2-c]pyridine-3-carboxamide], the Ki came out at 0.00096 µM. The value for `CCc1nc2cnc(Nc3ccnc(N4CCC(OC)CC4)n3)cc2n1C(C)C` [Example 4, (2-Ethyl-1-isopropyl-1H-imidazo[4,5-c]pyridin-6-yl)-[2-(4-methoxypiperidin-1-yl)pyrimidin-4-yl]amine] was 0.0174 µM. The value for `CNc1nc2cnc(Nc3ccnc(N4CCC(OC)CC4)n3)cc2n1C(C)C` [Example 6, 1-Isopropyl-N^6-[2-(4-methoxypiperidin-1-yl)pyrimidin-4-yl]-N^2-methyl-1H-imidazo[4,5-c]pyridine-2,6-diamine] was 0.0105 µM; that for `CCOCCOCc1nc2cnc(Nc3ccnc(N4CCC(OC)CC4)n3)cc2n1C(C)C` [Example 7, [2-(2-Ethoxyethoxymethyl)-1-isopropyl-1H-imidazo[4,5-c]pyridin-6-yl]-[2-(4-methoxypiperidin-1-yl)pyrimidin-4-yl]amine] was 0.111 µM. For the molecule `COC1CCN(c2nccc(Nc3cc4c(cn3)nc(CN(C)C)n4C(C)C)n2)CC1` [Example 9, (2-Dimethylaminomethyl-1-isopropyl-1H-imidazo[4,5-c]pyridin-6-yl)-[2-(4-methoxypiperidin-1-yl)pyrimidin-4-yl]amine formate salt], the Ki was found to be 0.178 µM. For `COC1CCN(c2nccc(Nc3cc4c(cn3)nc(CO)n4C(C)C)n2)CC1` [Example 10, {1-Isopropyl-6-[2-(4-methoxypiperidin-1-yl)pyrimidin-4-ylamino]-1H-imidazo[4,5-c]pyridin-2-yl}methanol] the value was 0.0186 µM; for `COc1nc2cnc(Nc3ccnc(N4CCC(OC)CC4)n3)cc2n1C(C)C` [Example 11, (1-Isopropyl-2-methoxy-1H-imidazo[4,5-c]pyridin-6-yl)-[2-(4-methoxypiperidin-1-yl)pyrimidin-4-yl]amine], 0.0412 µM; for `CC(C)n1cnc2cnc(Nc3ccnc(N4CCc5[nH]ncc5C4)n3)cc21` [Example 12, (1-Isopropyl-1H-imidazo[4,5-c]pyridin-6-yl)-[2-(1,4,6,7-tetrahydropyrazolo[4,3-c]pyridin-5-yl)pyrimidin-4-yl]amine], 0.0445 µM.

As for `CC(C)n1cnc2cnc(Nc3ccnc(N4CCC(O)CC4)n3)cc21` [Example 13, 1-[4-(1-Isopropyl-1H-imidazo[4,5-c]pyridin-6-ylamino)pyrimidin-2-yl]piperidin-4-ol], the Ki was determined as 0.097 µM.

With `CC(C)n1cnc2cnc(Nc3ccnc(N4CCC5(CC4)CNC(=O)O5)n3)cc21` [Example 14, 8-[4-(1-Isopropyl-1H-imidazo[4,5-c]pyridin-6-ylamino)pyrimidin-2-yl]-1-oxa-3,8-diazaspiro[4.5]decan-2-one], the Ki is 0.0843 µM. Consider `CC(C)n1cnc2cnc(Nc3ccnc(N4CCn5ccnc5C4)n3)cc21` [Example 15, [2-(5,6-Dihydro-8H-imidazo[1,2-a]pyrazin-7-yl)pyrimidin-4-yl]-(1-isopropyl-1H-imidazo[4,5-c]pyridin-6-yl)amine], for which the Ki is 1.39 µM.

As to `CC(C)n1cnc2cnc(Nc3ccnc(N4CCN(S(C)(=O)=O)CC4)n3)cc21` [Example 16, (1-Isopropyl-1H-imidazo[4,5-c]pyridin-6-yl)-[2-(4-methanesulfonylpiperazin-1-yl)pyrimidin-4-yl]-amine], the Ki was 0.292 µM. In the case of `COC1CN(c2nccc(Nc3cc4c(cn3)ncn4C(C)C)n2)C1` [Example 17, (1-Isopropyl-1H-imidazo[4,5-c]pyridin-6-yl)-[2-(3-methoxyazetidin-1-yl)pyrimidin-4-yl]amine], the Ki is 1.3 µM.

For the molecule `COC1CCN(c2nccc(Nc3cc4c(cn3)ncn4C3CCOC3)n2)CC1` (stereo not shown) [Example 18, [2-(4-Methoxypiperidin-1-yl)pyrimidin-4-yl]-[1-(tetrahydrofuran-3-yl)-1H-imidazo[4,5-c]pyridin-6-yl]amine], the Ki is 0.187 µM. For `COC1CCN(c2nccc(Nc3cc4c(cn3)ncn4C3CCOCC3)n2)CC1` [Example 19, [2-(4-Methoxypiperidin-1-yl)pyrimidin-4-yl]-[1-(tetrahydropyran-4-yl)-1H-imidazo[4,5-c]pyridin-6-yl]amine] the value was 0.0828 µM. With `CCn1cnc2cnc(Nc3ccnc(N4CCC(OC)CC4)n3)cc21` [Example 20, (1-Ethyl-1H-imidazo[4,5-c]pyridin-6-yl)-[2-(4-methoxypiperidin-1-yl)pyrimidin-4-yl]amine], the Ki worked out at 0.123 µM. Take `COC1CCN(c2nccc(Nc3cc4c(cn3)nc(-c3cn[nH]c3)n4C)n2)CC1` [Example 21, [2-(4-Methoxypiperidin-1-yl)pyrimidin-4-yl]-[1-methyl-2-(1H-pyrazol-4-yl)-1H-imidazo[4,5-c]pyridin-6-yl]amine]: the Ki amounted to 0.258 µM. On to `COC1CCN(c2nccc(Nc3cc4nc(Cc5ccccc5F)n(C)c4cn3)n2)CC1` [Example 22, [2-(2-Fluorobenzyl)-3-methyl-3H-imidazo[4,5-c]pyridin-6-yl]-[2-(4-methoxypiperidin-1-yl)pyrimidin-4-yl]amine], for which the Ki amounted to 1.04 µM.

As for `COC1CCN(c2nccc(Nc3cc4nc(-c5cn[nH]c5)n(C)c4cn3)n2)CC1` [Example 25, [2-(4-Methoxypiperidin-1-yl)pyrimidin-4-yl]-[3-methyl-2-(1H-pyrazol-4-yl)-3H-imidazo[4,5-c]pyridin-6-yl]amine dihydrochloride], the Ki was determined as 1.01 µM. The value for `CC(C)n1cnc2cnc(Nc3ccnc(C4=CCN(S(C)(=O)=O)CC4)n3)cc21` [Example 27, (1-Isopropyl-1H-imidazo[4,5-c]pyridin-6-yl)-[2-(1-methanesulfonyl-1,2,3,6-tetrahydropyridin-4-yl)pyrimidin-4-yl]amine] was 0.158 µM; that for `CC(C)n1cnc2cnc(Nc3ccnc(N4CCOCC4)n3)cc21` [Example 28, (1-Isopropyl-1H-imidazo[4,5-c]pyridin-6-yl)-(2-morpholin-4-ylpyrimidin-4-yl)amine] was 0.335 µM; that for `CC(C)n1cnc2cnc(Nc3ccnc(N4CC[S+]([O-])CC4)n3)cc21` [Example 29, 4-(4-((1-isopropyl-1H-imidazo[4,5-c]pyridin-6-yl)amino)pyrimidin-2-yl)thiomorpholine 1-oxide] was 0.557 µM. For `CC(C)n1cnc2cnc(Nc3ccnc(N4CCS(=O)(=O)CC4)n3)cc21` [Example 30, 4-(4-((1-isopropyl-1H-imidazo[4,5-c]pyridin-6-yl)amino)pyrimidin-2-yl)thiomorpholine 1,1-dioxide] the value was 1.44 µM.
